Values of other authors as cited in PMC4263031 (Bioconjugate chemistry, 2012).

Amino acid sequences for entries named in this document (tags omitted). A change or cut given only in a name is not applied to a line headed by its entry.
UniProt P30680: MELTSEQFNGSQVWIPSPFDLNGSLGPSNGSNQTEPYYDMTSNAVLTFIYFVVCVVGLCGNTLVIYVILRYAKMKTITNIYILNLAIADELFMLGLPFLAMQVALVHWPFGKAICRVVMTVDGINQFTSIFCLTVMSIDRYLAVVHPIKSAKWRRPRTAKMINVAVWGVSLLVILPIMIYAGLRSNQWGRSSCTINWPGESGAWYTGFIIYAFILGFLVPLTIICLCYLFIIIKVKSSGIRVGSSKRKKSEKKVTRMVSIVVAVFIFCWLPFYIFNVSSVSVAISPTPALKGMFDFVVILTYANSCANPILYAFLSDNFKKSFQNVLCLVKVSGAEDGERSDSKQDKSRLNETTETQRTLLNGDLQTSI

Molecular target: SSTr2 (Rattus norvegicus, UniProt P30680)
Settings: AR42J membranes

^64Cu-CB-TE2A-Y3-TATE: 64Cu-labeled CB-TE2A chelator conjugated to somatostatin analogue Y3-TATE; previously published comparator
Kd: 1.7 nM
